Assay results taken from US20050203174A1, “Combination therapies using leptomycin B” (Kosan Biosciences, Inc., priority 2004, published 2005).

Tested on: colon cancer cell line DLD-1
Test: Cell viability assay (CellTiter-Glo) and combination effect analysis of leptomycin B plus co-agent
Format: cell-based, Human
Conditions: combination with leptomycin B, DLD-1 cells, average CI over fraction affected 0.2 to 0.9; for Combination Index, LMB First: 24 hours of LMB, then drug added and incubated for 48 hours; for Combination Index, Co-Agent First: drug alone for 24 hours followed by addition of LMB for 48 hours; for Combination Index, Simultaneous: simultaneous exposure to LMB and drug for 72 hours, constant ratio of IC50s
Method: The efficacy of a combination of leptomycin B and specific chemotherapeutic co-agents was determined. The additive, synergistic, or antagonistic effect of the combination of leptomycin B and a co-agent was calculated for each administration regimen using Calcusyn software (Biosoft, Cambridge, United Kingdom). This software calculates a combination index using the following algorithm: CI=[D]1/[Dx]1+[D]2/[Dx]2 where • CI is the combination index; • [D]1 and [D]2 are the concentrations of the two agents being tested (i.e., LMB and the co-agent) that, in combination provide a response of x % in the assay; and • [Dx]1 and [Dx]2 are the concentrations of the two agents that, when used alone, produce a response of x % in the assay.
A CI value of one means the combined effect of the two agents is additive. A CI value of less than one means that the two agents act synergistically. A CI value of greater than one means that the two agents act antagonistically.
The area under the curve where the fraction affected of cells (FA) ranged from 0.2 to 0.9 was calculated, to generate average CI values as shown in Table 1 for colon cancer cell line DLD-1.
Human colon adenocarcinoma cell line, DLD-1, was obtained from American Type Culture Collection (Manassas, Va.). […] Leptomycin B was produced by fermentation of a high producing isolate from Streptomyces sp. […] LMB is also available from commercial sources, such as Sigma-Aldrich. Other anti-cancer agents were either purchased commercially (e.g., from Sigma Chemical Co. (St. Louis, Mo.) or from Sequoia Research Products (Oxford, UK)).
Cells were seeded in duplicate in 96-well microtiter plates at a density of 4,000 cells per well and allowed to attach overnight. Cells were treated with LMB and the corresponding cytotoxic drug at varying concentrations, ranging from 0.5 picomolar (“pM”) to 50 micromolar (“μM”), for 3 days. Cell viability was determined using the CellTiter-Glo luminescent cell viability assay (Promega). For the drug combination assay, cells were seeded in duplicate in 96-well plates (4,000 cells/well). […] Based on the IC50 values of each individual drug, combined drug treatment was designed at constant ratios of two drugs, i.e., equivalent to the ratio of their IC50. Three treatment schedules were used: The first schedule used simultaneous exposure to both LMB and drug for 72 hours. In the second schedule, the cells were exposed to 24 hours of LMB. The drug was then added to the cells and incubated for 48 hours. In the third schedule, cells were exposed to the drug alone for 24 hours followed by addition of LMB for 48 hours. Cell viability was determined by the CellTiter-Glo luminescent cell viability assay. Synergism, additivity, or antagonism was determined by median effect analysis using the combination index (CI) calculated using Calcusyn (Biosoft, Cambridge, UK), as described above.

| Compound | Combination Index, LMB First | Combination Index, Co-Agent First | Combination Index, Simultaneous |
| --- | --- | --- | --- |
| 2-fluorovidarabine [Fludarabine] | 0.70 ± 0.13 | 0.94 ± 0.003 | 1.10 ± 0.05 |
| CO[C@@]12[C@H](COC(N)=O)C3=C(C(=O)C(C)=C(N)C3=O)N1C[C@@H]1N[C@@H]12 [Mitomycin C, mitomycin] | 1.04 ± 0.01 | 0.85 ± 0.02 | 1.04 ± 0.05 |
| bleomycin | 0.78 ± 0.16 | 0.71 ± 0.04 | 1.41 ± 0.39 |
